For two compounds, EC50 and EC50 of cAMP production by GLP-1R-overexpressing HEK-293 cells results are on record in publication PMC7919490, “Effect of C-terminus Conjugation via Different Conjugation Chemistries on In Vivo Activity of Albumin-Conjugated Recombinant GLP-1” (Pharmaceutics, 2021).

The chains behind the UniProt entries cited, without tags or fusion partners. Residues count along the entry.
UniProt P43220, 24-463: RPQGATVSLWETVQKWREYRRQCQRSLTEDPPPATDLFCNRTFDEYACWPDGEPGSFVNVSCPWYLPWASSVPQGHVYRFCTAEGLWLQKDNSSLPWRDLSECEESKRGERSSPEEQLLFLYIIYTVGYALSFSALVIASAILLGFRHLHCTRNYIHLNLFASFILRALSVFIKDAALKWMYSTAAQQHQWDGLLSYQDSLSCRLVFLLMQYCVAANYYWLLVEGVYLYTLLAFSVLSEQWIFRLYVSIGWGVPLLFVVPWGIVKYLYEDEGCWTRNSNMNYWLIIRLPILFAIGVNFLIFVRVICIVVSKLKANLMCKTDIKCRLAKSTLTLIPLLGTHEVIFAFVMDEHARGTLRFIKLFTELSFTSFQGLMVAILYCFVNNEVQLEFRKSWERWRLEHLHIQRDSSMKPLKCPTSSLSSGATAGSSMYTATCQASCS

One experiment concerns the target T1, GLP-1R (Homo sapiens, UniProt P43220).
T1 construct: Tango fusion cassette (named only as '_tango' in the plasmid name); host or cells: HEK293 (ATCC), transiently transfected
In words: In vitro activity assay: cAMP production by GLP-1R-overexpressing HEK-293 cells. The class given is cell-based. The procedure:
The plasmid pcDNA3.1-GLP-1R_tango (Addgene, Cambridge, MA, USA) and transfection reagent were then mixed in serum-free medium for 20 min, in accordance with the manufacturer’s recommendation. […] The levels of cAMP in the cell lysate were measured using the cAMP Parameter Assay Kit following the manufacturer’s protocol. […] The half maximal effective concentrations (EC50) of each curve were estimated from a dose–response curve using OriginPro software. Absorbance at 450 nm was monitored using a Varioskan Lux microplate reader (Thermo Fisher Scientific).
On the technique in general: Cyclic AMP is a second messenger, typically raised through Gs and lowered through Gi signalling.

A further experiment addresses GLP-1 receptor (GLP-1R) (UniProt P43220).

For orientation: EC50 means the concentration needed to bring the measured effect to its halfway point. In the case of `CC[C@H](C)[C@H](NC(=O)[C@H](Cc1ccccc1)NC(=O)[C@H](CCC(=O)O)NC(=O)[C@H](CCCCN)NC(=O)[C@H](C)NC(=O)[C@H](C)NC(=O)[C@H](CCC(N)=O)NC(=O)CNC(=O)[C@H](CCC(=O)O)NC(=O)[C@H](CC(C)C)NC(=O)[C@H](Cc1ccc(O)cc1)NC(=O)[C@H](CO)NC(=O)[C@H](CO)NC(=O)[C@@H](NC(=O)[C@H](CC(=O)O)NC(=O)[C@H](CO)NC(=O)[C@@H](NC(=O)[C@H](Cc1ccccc1)NC(=O)[C@@H](NC(=O)CNC(=O)[C@H](CCC(=O)O)NC(=O)CNC(=O)[C@@H](N)Cc1c[nH]cn1)[C@@H](C)O)[C@@H](C)O)C(C)C)C(=O)N[C@@H](C)C(=O)N[C@@H](Cc1c[nH]c2ccccc12)C(=O)N[C@@H](CC(C)C)C(=O)N[C@H](C(=O)N[C@@H](CCCNC(=N)N)C(=O)NCC(=O)N[C@@H](CCCNC(=N)N)C(=O)NCC(=O)O)C(C)C` [GLP1_8GWT], the EC50 at GLP-1R amounted to 0.0132 µM.

In turn, GLP1_8GWT (peptide) registered an EC50 of cAMP production by GLP-1R-overexpressing HEK-293 cells with GLP-1 receptor (GLP-1R) of 0.0132 µM.
